Where “and” joins values, the source holds several entries; their conditions need not be identical. Identical values can stand only once. This is a selection; strong and weak results do not stand in their true shares. Some compounds were tested as several samples or in several runs, with calls that do not always agree. Calls of active or inactive are those of the source. No stated cut-off is given here; in the data, active means growth inhibition above about 70%; inactive means the rest.
Tests used:
[1] = NCI Yeast Anticancer Drug Screen. Data for the rad50 strain (AID 155);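 further: 0% = growth of vehicle-only cultures of the same strain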; conditions: S. cerevisiae rad50 strain growth inhibition, stronger effect = higher value
[2] = NCI Yeast Anticancer Drug Screen. Data for the mec2-1 strain (AID 157); conditions: S. cerevisiae mec2-1 strain, stronger effect = higher value
[3] = NCI Yeast Anticancer Drug Screen. Data for the sgs1 mgt1 strain (AID 161);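 further: 0% = growth of cultures given vehicle only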; conditions: S. cerevisiae sgs1 mgt1 strain, stronger effect = higher value
[4] = NCI Yeast Anticancer Drug Screen. Data for the cln2 rad14 strain (AID 165);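 further: 0% = growth equal to vehicle treated cultures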; conditions: S. cerevisiae cln2 rad14 strain, stronger effect = higher value
[5] = NCI Yeast Anticancer Drug Screen. Data for the bub3 strain (AID 167); conditions: S. cerevisiae bub3 mutant strain, stronger effect = higher value
[6] = NCI Yeast Anticancer Drug Screen. Data for the mlh1 rad18 strain (AID 175); conditions: S. cerevisiae mlh1 rad18 strain growth inhibition, stronger effect = higher value
[7] = at 5.0 µM (retest, dose inferred, filed as 0.5)
[8] = at 50.0 µM (retest, dose inferred, filed as 5.0)

Measured: growth inhibition

O=C(O)C[n+]1ccc(/C=C/c2ccccc2)cc1
inactive: [1]; at 50.0 µM -13.8% | [2]; at 50.0 µM 8.1% | [3]; at 50.0 µM 2.85% | [4]; at 50.0 µM -29.2% | [5]; at 50.0 µM -17.1% | [6]; at 50.0 µM 0.5%

O=C1C(C(Cl)(Cl)Cl)OC(C(Cl)(Cl)Cl)N1C(O)C(Cl)(Cl)Cl (stereo not given)
inactive: [1]; at 50.0 µM -11.1% | [2]; at 50.0 µM -17.8% | [3]; at 50.0 µM -6.7% | [4]; at 50.0 µM 5% | [5]; at 50.0 µM 8.75% | [6]; at 50.0 µM -18.1%

CCCCOC(=O)N(CCCl)CCCl
inactive: [1]; at 50.0 µM 15.2% | [2]; at 50.0 µM -5.85% | [3]; at 50.0 µM -5.3% | [4]; at 50.0 µM 8.15% | [5]; at 50.0 µM 5.55% | [6]; at 50.0 µM 5.3%

Cn1c(=O)c([N+](=O)[O-])c(N=[N+]=[N-])c2ccccc21
active: [1]; at 50.0 µM 89.2% | [2]; at 50.0 µM 92.5% | [3]; at 50.0 µM 88.5% | [4]; at 50.0 µM 86.9% | [5]; at 50.0 µM 88%

CCCCOP(N)(=O)OCCCC
inactive: [1]; at 50.0 µM 8.55% | [2]; at 50.0 µM -17.6% | [3]; at 50.0 µM -7.6% | [4]; at 50.0 µM 19.3% | [5]; at 50.0 µM -18.7% | [6]; at 50.0 µM 24.1%

O=C1CN(CCCl)CC(=O)N2Cc3ccccc3CN12
inactive: [1]; at 50.0 µM -10.4% | [2]; at 50.0 µM 13% | [3]; at 50.0 µM -11.9% | [4]; at 50.0 µM -3.25% | [5]; at 50.0 µM -1.55% | [6]; at 50.0 µM -15.7%

Cc1cccc(N[P@]2(Cl)=NP(Cl)(Cl)=N[P@@](Cl)(Nc3cccc(C)c3)=NP(Cl)(Cl)=N2)c1
inactive: [1]; at 50.0 µM -0.4% | [2]; at 50.0 µM -3.1% | [3]; at 50.0 µM -0.55% | [4]; at 50.0 µM -7.45% | [5]; at 50.0 µM -5% | [6]; at 50.0 µM 8.85%

O=[N+]([O-])c1ccc(C[As](=O)(O)O)cc1
inactive: [1]; at 50.0 µM 11.3% | [2]; at 50.0 µM 15.8% | [3]; at 50.0 µM 5.7% | [4]; at 50.0 µM -24.1% | [5]; at 50.0 µM -14.1% | [6]; at 50.0 µM 5.7%

O=C(c1cc([N+](=O)[O-])cc([N+](=O)[O-])c1)c1cc([N+](=O)[O-])c(O)c([N+](=O)[O-])c1
inactive: [1]; at 50.0 µM 24.6% | [2]; at 50.0 µM 19.9% | [3]; at 50.0 µM 50.5% | [4]; at 50.0 µM 29.9% | [5]; at 50.0 µM 8.05% | [6]; at 50.0 µM 33%

CCOP(=O)(CCBr)OCC
inactive: [1]; at 50.0 µM 21.3% | [2]; at 50.0 µM -1.2% | [3]; at 50.0 µM 4.15% | [4]; at 50.0 µM -20.1% | [5]; at 50.0 µM 0.95% | [6]; at 50.0 µM 30.8%

CN1C(=O)N(C)P(=O)(c2ccccc2)P1c1ccccc1 (stereo not given)
inactive: [1]; at 50.0 µM 10.9% | [2]; at 50.0 µM -3.35% | [3]; at 50.0 µM 12.8% | [4]; at 50.0 µM 4.6% | [5]; at 50.0 µM 9% | [6]; at 50.0 µM 17.4%

FC(F)(F)c1cccc(NC2=NCC(CI)S2)c1 (stereo not given)
inactive: [1]; at 50.0 µM 30.9% | [2]; at 50.0 µM -16.1% | [3]; at 50.0 µM 11.5% | [4]; at 50.0 µM 1.15% | [5]; at 50.0 µM -5.65% | [6]; at 50.0 µM 18.7%

ICCN(CCI)c1ccc2ccccc2c1
inactive: [1]; at 50.0 µM 30.6% | [2]; at 50.0 µM 11% | [3]; at 50.0 µM 18.1% | [4]; at 50.0 µM 18.1% | [5]; at 50.0 µM 21.4% | [6]; at 50.0 µM 37.1%

ClP1Nc2cncnc2N1 (stereo not given)
inactive: [1]; at 50.0 µM -68% | [2]; at 50.0 µM -22.2% | [3]; at 50.0 µM -10.7% | [4]; at 50.0 µM -63.6% | [5]; at 50.0 µM -0.4% | [6]; at 50.0 µM -16.3%

ClCCN(CCCl)c1cccc(Oc2ccccc2)c1
inactive: [1]; at 50.0 µM -17.5% | [2]; at 50.0 µM 9.1% | [3]; at 50.0 µM -6.45% | [4]; at 50.0 µM -47.9% | [5]; at 50.0 µM 17.4% | [6]; at 50.0 µM -17.8%

NC(=O)Nc1cc([As](=O)(O)O)cc(I)c1O
inactive: [1]; at 50.0 µM 8.65% | [2]; at 50.0 µM 8.2% | [3]; at 50.0 µM -40.1% | [4]; at 50.0 µM 2.35% | [5]; at 50.0 µM -11.6% | [6]; at 50.0 µM -0.25%

Cn1c(COC(=O)N(CCCl)CCCl)cnc1S(C)=O (stereo not given)
inactive: [1]; at 50.0 µM -17.9% | [2]; at 50.0 µM -19.1% | [3]; at 50.0 µM -23.1% | [4]; at 50.0 µM -4.15% | [5]; at 50.0 µM 14.5% | [6]; at 50.0 µM 6.85%

c1ccc(C[S+]2CCCC2)cc1
inactive: [1]; at 50.0 µM 8.85% | [2]; at 50.0 µM -4% | [3]; at 50.0 µM -4.25% | [4]; at 50.0 µM 15.7% | [5]; at 50.0 µM -18.4% | [6]; at 50.0 µM 14.7%

Cc1cc([N+](=O)[O-])cc([N+](=O)[O-])c1O
63.6% (inactive) and 83.3% (active): [6]; at 50.0 µM
30.6% (inactive) and 83.5% (active): [5]; at 50.0 µM
active: [1]; [8] 85% | [2]; [8] 87% | [3]; [8] 91% | [4]; [8] 94% | [5]; [8] 94% | [6]; [8] 86%
7.8% (inactive) and 87% (active): [2]; at 50.0 µM
inactive: [1]; [7] 0% | [2]; [7] 6% | [3]; [7] 0% | [4]; [7] 7% | [4]; at 50.0 µM 20.9% and 62.5% | [5]; [7] 0% | [6]; [7] 0%
56% (inactive) and 85.3% (active): [3]; at 50.0 µM
48.8% (inactive) and 79.4% (active): [1]; at 50.0 µM

NC(=O)N/C(N)=N/P(=O)(Oc1ccccc1)Oc1ccccc1
inactive: [1]; at 50.0 µM 9.8% | [2]; at 50.0 µM 8.15% | [3]; at 50.0 µM 8.7% | [4]; at 50.0 µM 12.9% | [5]; at 50.0 µM -5.9% | [6]; at 50.0 µM 4.05%

CN=C(/N=C1\N(C)C(C)(C)P(=O)(O)N1C)NC
inactive: [1]; at 50.0 µM -36% | [2]; at 50.0 µM -40.9% | [3]; at 50.0 µM -35.9% | [4]; at 50.0 µM 5.85% | [5]; at 50.0 µM 8.55% | [6]; at 50.0 µM -25.4%

Nc1nc(N)c(NCCCc2ccc(NC(=O)c3cccc(S(=O)(=O)F)c3)cc2)c(-c2ccccc2)n1
inactive: [1]; at 50.0 µM 14.9% | [2]; at 50.0 µM 23.4% | [3]; at 50.0 µM 57.3% | [4]; at 50.0 µM -4.9% | [5]; at 50.0 µM -12.7% | [6]; at 50.0 µM 54.5%

Cc1ccccc1OP(=O)(Cl)Oc1ccccc1C
inactive: [1]; at 50.0 µM -12% | [2]; at 50.0 µM -42% | [3]; at 50.0 µM -0.7% | [4]; at 50.0 µM 9.4% | [5]; at 50.0 µM -36% | [6]; at 50.0 µM -8.7%

CC1=CC2O[C@@H]3C[C@H]4OC(=O)CCCCC(C(C)O)OCC(O)C5(C)OC5C(=O)OCC2(C[C@H]1O)[C@]4(C)[C@@]31CO1 (stereo not given in full)
inactive: [1]; at 50.0 µM 38% | [2]; at 50.0 µM 37.8% | [3]; at 50.0 µM 8.95% | [4]; at 50.0 µM 30.1% | [5]; at 50.0 µM 25.5% | [6]; at 50.0 µM 0.15%

COc1cc(CNCCCl)cc(OC)c1OC
inactive: [1]; at 50.0 µM 9.7% | [2]; at 50.0 µM -16.8% | [3]; at 50.0 µM 6.5% | [4]; at 50.0 µM -5.9% | [5]; at 50.0 µM 3.1% | [6]; at 50.0 µM -11.9%

CCN(CCCl)Cc1ccccc1
inactive: [1]; at 50.0 µM 36.4% | [2]; at 50.0 µM -3.8% | [3]; at 50.0 µM 32.1% | [4]; at 50.0 µM 5.95% | [5]; at 50.0 µM -3.3% | [6]; at 50.0 µM 39.1%

O=[N+]([O-])c1cccc(SC2CCCCC2Cl)c1 (stereo not given)
inactive: [1]; at 50.0 µM -0.75% | [2]; at 50.0 µM 21.2% | [3]; at 50.0 µM 0.9% | [4]; at 50.0 µM 54.1% | [5]; at 50.0 µM 27.8% | [6]; at 50.0 µM 12.4%

CN(N)/C(N)=N/[N+](=O)[O-]
inactive: [1]; at 50.0 µM 15.8% | [2]; at 50.0 µM -4.95% | [3]; at 50.0 µM 24.1% | [4]; at 50.0 µM -10.6% | [5]; at 50.0 µM 6.7% | [6]; at 50.0 µM 23.1%

CCOC(=O)NNC(=S)NP(=O)(NC(=S)NNC(=O)OCC)NC(=S)NNC(=O)OCC
inactive: [1]; at 50.0 µM 23.4% | [2]; at 50.0 µM 11.3% | [3]; at 50.0 µM -4.45% | [4]; at 50.0 µM -1.75% | [5]; at 50.0 µM 1.15% | [6]; at 50.0 µM 2.8%

Reference: PubChem BioAssay (NCI)
